Apparent affinities of Ab-14 variants for a coronavirus HR2 peptide

The measurements come from Engelhart et al. 2022 (doi:10.1038/s41597-022-01779-4) through the FLAb antibody collection.

Target peptide (SARS-CoV-2 spike, HR2 region): PDVDLGDISGINAS

Parent: Ab-14, a human scFv built as VH, a 15-residue (Gly4Ser)3 linker, VL. Only the CDRs of the light chain vary.
VH: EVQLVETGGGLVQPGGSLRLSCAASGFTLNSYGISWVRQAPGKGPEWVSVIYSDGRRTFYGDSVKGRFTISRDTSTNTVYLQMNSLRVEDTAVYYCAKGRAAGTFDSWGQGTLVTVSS
VL: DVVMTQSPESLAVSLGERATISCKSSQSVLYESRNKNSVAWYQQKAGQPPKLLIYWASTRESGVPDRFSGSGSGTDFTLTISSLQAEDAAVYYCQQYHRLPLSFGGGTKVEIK

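The parent was found by panning a naive human phage display library on the peptide. AAYL50 was designed without a model: most single CDR substitutions and a random sample of double and triple ones. The scFvs were displayed on barcoded MATa yeast, the peptide on MATalpha yeast. After mating in shaken culture at 30 °C for 16 h, diploids were selected and their barcode pairs sequenced. Each replicate has its own calibration line, from reference interactions of the BCL2 family. Mating was done three times.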

Each variant is given by its three light chain CDRs, as the data file delimits them; those of the parent are KSSQSVLYESRNKNSVA, WASTRES, QQYHRLPLS. Affinities are written as log10 Kd with Kd in nM; a lower number is a better binder. "ND" marks a missing value. The strain was present, yet no cells mated with the target were sequenced in that replicate, which points to weak or no binding.

| CDR-L1 | CDR-L2 | CDR-L3 | log10 Kd, replicates | empty controls |
|---|---|---|---|---|
| KSSQSVLYESENKNSVA | WASTRES | QQYHYWPLS | 0.13 0.62 0.44 | 3/9 (4.62) |
| KSSQSVLYYSRNKNSVA | DAITRES | QQYHRLPLS | 0.11 0.46 0.27 | 5/9 (5.33) |
| KSSQSVRYESRNKNSVA | WASTRES | QQYHRLPLM | 2.43 2.12 2.64 | 1/9 (3.96) |
| KSSQCVLYESRNKNSVA | WKSRRES | QQYHRLPLS | ND ND ND | 0/9 |
| KSSQSVLYESRNKNSVA | WASTRES | QQYHRHPNC | 3.19 3.55 3.89 | 0/9 |
| KSSQSVLYESFNKNSVA | WASTRWS | QQFHRLPLS | 1.71 1.91 1.74 | 3/9 (3.78) |
| KSSQFVSYESRNKNSVA | WASTRES | QQYHRLPYS | ND ND ND | 1/9 (3.60) |
| KSSQSVLYEPRNKNSVA | CASTRES | QQYHRLPLS | 1.10 1.18 1.14 | 4/9 (4.20) |
| KSSQSVLYESRNKWSVA | WASTRES | QQYCRAPLS | 5.06 4.64 4.61 | 4/9 (4.22) |
| KWSQSVLYESRNKGSVA | WASTRES | QQYKRLPLS | 2.68 2.49 2.55 | 0/9 |
| KSSQSVLYESRNKNWVA | WWSTRES | QQYHRLPLY | 5.81 4.50 ND | 7/9 (4.05) |
| KSSQSVLYESRNKNSVA | WASTRES | WQYSRLPLS | ND ND ND | 2/9 (4.52) |
| KSSQSVEYLSRNKNSVA | WASTRES | QMYHRLPLS | 0.04 0.72 0.39 | 1/9 (2.16) |
| KSSQSVLYESRNKNSVA | WASTSEN | QQYHRLPLD | 3.07 ND 3.87 | 3/9 (3.73) |
| KSSQSQLYESRNKNSVA | WASTRES | QQYHRLALS | 1.67 1.55 2.03 | 1/9 (3.87) |
| KSSQSVLYESRNKNSVA | WARTRAS | QQHHRLPLS | 5.70 ND 5.05 | 6/9 (4.19) |
| KSNQSVLYTSRNKNSTA | WASTRES | QQYHRLPLS | 6.27 ND ND | 2/9 (4.86) |
| KSSQSVLMESRNKNSRA | WASTRES | DQYHRLPLS | ND ND 3.93 | 0/9 |
| KSLQSVLYTSRNKYSVA | WASTRES | QQYHRLPLS | 1.59 1.52 1.67 | 0/9 |
| KFSQSVLYESRFKNSVA | WASTRES | QQYHRLPLF | 0.40 0.64 0.51 | 1/9 (3.67) |
| KSSQSVLYEWRNKNSVA | WARTRES | QQYHRLALS | 2.91 2.51 3.38 | 1/9 (4.39) |
| KSSQSVLYESQNKNSVA | KTSTRES | QQYHRLPLS | -0.02 0.25 0.07 | 5/9 (5.33) |
| HSSQSVLYRSRNKNSVA | WASTRDS | QQYHRLPLS | 2.07 2.14 2.48 | 4/9 (4.02) |
| KSSQSVLYESRNKNSVA | GASHRES | YQYHRLPLS | 0.12 0.42 0.25 | 8/9 (5.43) |
| KECQSVLYESRNKNSVA | WASTRES | QQYHRLPLS | 1.29 1.37 1.69 | 0/9 |
| KSSTSVLYESRNFNSVA | WASTRES | NQYHRLPLS | 0.67 0.88 0.89 | 1/9 (3.76) |
| KSSQSFLYHSRNKNSVA | WASTRES | QQYHRLPFS | 1.28 1.84 1.31 | 2/9 (3.57) |
| KNSQSVLYESRNKNSVA | WASVRES | QQPHRLPLS | ND ND 4.00 | 2/9 (3.84) |
| KSSQSVLYESRNKNSVA | WAATYES | QTYHRLPLS | 5.92 5.65 ND | 4/9 (4.64) |
| KSSQSVLYKSRNFNSVA | WASTREN | QQYHRLPLS | ND ND ND | 0/9 |
| SESQSVLYESRNKNSVA | WASTRES | QQYHRLPLS | 1.80 1.54 1.74 | 0/9 |
| KSYQSVLYESRNKNSVA | WASTRES | QQYPRLPLH | 5.19 ND ND | 0/9 |
| KSSQSVLIESRYKFSVA | WASTRES | QQYHRLPLS | 5.30 3.33 4.66 | 0/9 |
| KSSQSVLYESRNKGSVA | WASTRES | QMYHRLPLS | 3.76 ND ND | 2/9 (2.94) |
| KSSQSVLYESRNKNSVA | NASTRES | QQYNRLWLS | ND ND ND | 0/9 |
| KSSQSVLYESRHKNSGA | WASTRES | QQYHRLPLK | ND ND ND | 1/9 (4.58) |
| KSSLSVLYESRNKNSVA | KASSRES | QQYHRLPLS | 1.50 1.59 1.60 | 1/9 (3.64) |
| KSSQSVLSESRNKNSVA | WASTRES | QQYHRLPLS | ND ND ND | 2/9 (3.61) |
| KDSQSVAYESRNKNSVA | WASTRES | DQYHRLPLS | 0.37 0.41 0.44 | 1/9 (2.42) |
| KSSQSVLYESRNKTPVA | WASTRYS | QQYHRLPLS | 2.12 2.00 2.25 | 4/9 (4.26) |
| KSSQSVLYESRNKHSVQ | WFSTRES | QQYHRLPLS | ND ND ND | 0/9 |
| KSSQSVLYESRNKNSVA | WISTRES | QQKHRLPLS | 4.85 ND 5.58 | 0/9 |
| KSSQSVLYESRNKNSVA | WASTRES | QQKHRLPLS | ND ND ND | 0/9 |
| KSSQSVKYESRNKNSVW | WASTRES | QQYHRLDLS | 4.48 3.20 ND | 1/9 (2.64) |
| KSSQSVLYESRNQNSVA | WASTRES | QQYHFLDLS | ND ND ND | 0/9 |
| DSSQSVLYESRNKNSVA | WASTRES | QQYHLLKLS | 3.28 2.91 3.24 | 4/9 (3.98) |
| KSSQSVLYESRNKNSDA | WASTRRS | QQYHREPLS | 5.37 ND ND | 1/9 (4.36) |

The closing 4 entries, repeated:

| CDR-L1 | CDR-L2 | CDR-L3 | log10 Kd, replicates | empty controls |
|---|---|---|---|---|
| KSSQSVKYESRNKNSVW | WASTRES | QQYHRLDLS | 4.48 3.20 ND | 1/9 (2.64) |
| KSSQSVLYESRNQNSVA | WASTRES | QQYHFLDLS | ND ND ND | 0/9 |
| DSSQSVLYESRNKNSVA | WASTRES | QQYHLLKLS | 3.28 2.91 3.24 | 4/9 (3.98) |
| KSSQSVLYESRNKNSDA | WASTRRS | QQYHREPLS | 5.37 ND ND | 1/9 (4.36) |

Three control strains display no target. For library AAYL50, 18% of the pairings with them gave a signal, with a median of 4.19 and one signal in twenty below 2.99, so weak values seen in few replicates may be background. For each scFv, signals with the empty controls are counted beside the result, with their mean in brackets. For reference, the parent read 0.65 as the reference entry and 1.68 as a member of this library.